Source: patent US20130324520A1, “RXRG MODULATORS FOR THE TREATMENT OF CANCER” (SLOAN-KETTERING INSTITUTE FOR CANCER RESEARCH, priority 2011, published 2013)
Entries after “also recorded” stand apart in the source; their conditions may differ.

Protein sequences, listed by entry. Tags and fused reporters are not part of them. Lines headed by an entry give the natural chain unless they say otherwise; changes in a name come on top.
UniProt P48443: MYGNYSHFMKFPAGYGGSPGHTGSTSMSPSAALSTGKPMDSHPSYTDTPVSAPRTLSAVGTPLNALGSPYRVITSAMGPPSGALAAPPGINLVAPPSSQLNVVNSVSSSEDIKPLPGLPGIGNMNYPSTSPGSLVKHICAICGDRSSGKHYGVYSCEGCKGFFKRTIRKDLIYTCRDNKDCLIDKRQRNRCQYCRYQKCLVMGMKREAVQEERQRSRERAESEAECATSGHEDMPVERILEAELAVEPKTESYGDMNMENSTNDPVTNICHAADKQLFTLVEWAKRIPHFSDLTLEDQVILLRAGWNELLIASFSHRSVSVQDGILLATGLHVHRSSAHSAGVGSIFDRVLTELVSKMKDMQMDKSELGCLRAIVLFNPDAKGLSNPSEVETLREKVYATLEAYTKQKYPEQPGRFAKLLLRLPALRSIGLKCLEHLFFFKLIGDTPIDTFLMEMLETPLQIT

Target: T1, S-phase promoting complex in HCT116 (Homo sapiens, UniProt P48443)
T1 construct: endogenous in cells; host or cells: HCT116
Type: cell-based
Procedure: Colon cancer or lung cancer cells were passaged to dishes with coverslips, and incubated in a humidified incubator at 5% CO2 and 37° C. for 1-2 days. The medium was removed and the cells fixed in 4% PFA/PBS for 5 min, gently rinsed with 0.15 M NaCl/20 mM Tris (pH 8.0; TBS), dried, and stored at −20° C. […] After treatment of RXRG ligands or RXRG knockdown, retinoblastoma cells were spread on poly-L-lysine coated slides with medium, and incubated for 3-4 hours before fixation.
Staining with mouse antibodies: Cells were treated with 1 mM EDTA/PBS for 5 min at room temperature and, washed with PBS. […]
Co-staining analyses with other antibodies: On completing the first staining reaction as described above, cells were incubated in block 1 for 20 min, incubated overnight with primary antibody in block 1, washed in PBS, incubated for 30 min in block 1 with Cy3 or Cy5 conjugated secondary antibody, and washed in PBS. […] Mounting Media (Vector Labs), and analyzed by inverted immunofluorescent microscopy (Axioplan2 Imaging, Carl Zeiss MicroImaging, LLC).

CN1c2ccc([N+](=O)[O-])cc2N=C(c2ccc(C(=O)O)cc2)c2cc3c(cc21)C(C)(C)CCC3(C)C [HX531]
S-phase promoting complex association (immunofluorescence): dissociation of the S-phase promoting complex; also recorded: dissociates pRb-S807 and TRB2; also recorded: dissociates pRb-S807 and RXRG; also recorded: dissociates pRb-S807 and Emi1; also recorded: dissociates pRb-S807 and p-p107; also recorded: dissociates pRb-S807 and pp130; also recorded: dissociates CDK2 and Cyclin E
